Results on 2 compounds are retold here after patent US8927504B2, “Combined use of dipeptidyl peptidase 4 inhibitor and sweetener” (Mitsubishi Tanabe Pharma Corporation, priority 2007, dated 2015).

The test system of the assay is active GLP-1 in plasma. The assay can be described thus: GLP-1 secretion-stimulating action by combined use of DPP4 inhibitor and sweetener (3), Example 5. Type of assay: in vivo, mouse. The settings on record: C57BL/6J mice, mean ± SEM, n = 5. The procedure:
Purified water was administered orally (10 mL/kg) as a control.
D-mannitol (Wako Pure Chemical Industries, Ltd.) at 3 g/kg, melibiose (Wako Pure Chemical Industries, Ltd.) at 6 g/kg or acesulfame K (Wako Pure Chemical Industries, Ltd.) at 3 g/kg was used as sweetener and administered orally (10 mL/kg). Purified water was administered orally (10 mL/kg) as a control.

On to `Cn1c(=O)cc(N2CCC[C@@H](N)C2)n(Cc2ccccc2C#N)c1=O` [Alogliptin, 6-[(3R)-3-aminopiperidin-1-yl-1-(2-cyanobenzyl)-3-methylpyrimidin-2,4(1H,3H)-dione], reference compound], for which the “Increase in AUC of Plasma active GLP-1” value reads like this: (DPP4 inhibitor 1 mg/kg orally combined with D-mannitol 3 g/kg orally) 136 ± 7 pM·h; (DPP4 inhibitor 1 mg/kg orally combined with melibiose 6 g/kg orally) 172 ± 10 pM·h.
For the compound `N[C@@H](CC(=O)N1CCn2c(nnc2C(F)(F)F)C1)Cc1cc(F)c(F)cc1F` [Sitagliptin, (3R)-3-amino-1-[9-(trifluoromethyl)-1,4,7,8-tetraazabicyclo[4.3.0]nona-6,8-dien-4-yl]-4-(2,4,5-trifluorophenyl)butan-1-one, reference compound], the “Increase in AUC of Plasma active GLP-1” value reads like this: (DPP4 inhibitor 10 mg/kg orally alone (purified water instead of sweetener)) 79 ± 1 pM·h; (DPP4 inhibitor 10 mg/kg orally combined with D-mannitol 3 g/kg orally) 166 ± 9 pM·h; (DPP4 inhibitor 10 mg/kg orally combined with acesulfame K 3 g/kg orally) 148 ± 13 pM·h; (DPP4 inhibitor 10 mg/kg orally combined with melibiose 6 g/kg orally) 218 ± 18 pM·h.
